The chains behind the UniProt entries cited, without tags or fusion partners.
UniProt P27487, whole entry: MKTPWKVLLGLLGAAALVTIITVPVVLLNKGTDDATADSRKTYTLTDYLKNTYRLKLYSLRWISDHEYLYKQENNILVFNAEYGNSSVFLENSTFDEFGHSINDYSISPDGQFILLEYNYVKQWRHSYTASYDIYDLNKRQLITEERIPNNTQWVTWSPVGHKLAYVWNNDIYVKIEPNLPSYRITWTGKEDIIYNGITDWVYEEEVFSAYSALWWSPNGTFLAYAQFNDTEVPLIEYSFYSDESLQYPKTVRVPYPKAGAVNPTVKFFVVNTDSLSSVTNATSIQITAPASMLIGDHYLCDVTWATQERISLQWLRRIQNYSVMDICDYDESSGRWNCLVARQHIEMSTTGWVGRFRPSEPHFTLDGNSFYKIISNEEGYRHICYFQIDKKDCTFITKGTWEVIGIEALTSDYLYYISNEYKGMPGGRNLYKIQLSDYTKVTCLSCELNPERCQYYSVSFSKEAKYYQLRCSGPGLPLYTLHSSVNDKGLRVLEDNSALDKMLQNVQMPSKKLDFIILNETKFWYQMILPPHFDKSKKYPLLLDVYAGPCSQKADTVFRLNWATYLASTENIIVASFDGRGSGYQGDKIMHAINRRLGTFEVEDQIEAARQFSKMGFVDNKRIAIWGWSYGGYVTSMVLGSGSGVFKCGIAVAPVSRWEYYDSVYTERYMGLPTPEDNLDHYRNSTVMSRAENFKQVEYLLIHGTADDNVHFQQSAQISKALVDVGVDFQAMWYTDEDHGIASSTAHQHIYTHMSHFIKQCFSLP

According to ChEMBL document CHEMBL4229387, “Recent progress of the development of dipeptidyl peptidase-4 inhibitors for the treatment of type 2 diabetes mellitus” (Eur J Med Chem, 2018):

Target: Dipeptidyl peptidase 4 (Homo sapiens, UniProt P27487)
Assay: Inhibition of DPP4 (unknown origin) using Gly-Pro-AMC as substrate preincubated for 4 secs followed by substrate addition and measured after 30 mins by […] assay

IC50: 4.21 µM
Structure (SMILES): CC[C@H](C)[C@H](N)C(=O)N1CCC[C@H]1C(=O)N[C@H](C(=O)O)[C@@H](C)CC [DIPROTIN A]
